Laboratory results published in US20100069443A1, “COMPOUND WITH BENZAMIDE SKELETON HAVING CYCLOOXYGENASE-1 (COX-1)-SELECTIVE INHIBITORY ACTIVITY” (National University Corporation Okayama University, priority 2006, published 2010).

Nc1ccc(C(=O)Nc2ccc(C(F)(F)F)cn2)cc1 [Compound 14]
Rapid decrease of body weight, changes in coats, caudal necrosis (300 mg/kg intraperitoneally, 5 mice, observed for 14 days): not observed

Nc1ccc(NC(=O)c2ccc(C(F)(F)F)cc2)nc1 [Compound 1]
Rapid decrease of body weight, changes in coats, caudal necrosis (1 g/kg intraperitoneally, 3 mice, observed for 10 days): not observed

Like-named read-outs stand apart in the source and are kept apart here.
